Results reported in PubChem BioAssay (NCI).
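Five concentrations, 48 hours, 96-well plates. Abbreviation: GI50, concentration required for 50% inhibition of growth. TGI: total growth inhibition.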

Assays:
Experiment in all cases: NCI anticancer screen, dose series, 48 h
[1] = tested on: 786-0 renal
[2] = tested on: A498 renal
[3] = tested on: A549 NSCLC
[4] = tested on: ACHN renal
[5] = tested on: BT-549 breast
[6] = tested on: CAKI-1 renal
[7] = tested on: CCRF-CEM leukemia
[8] = tested on: COLO 205 colon
[9] = tested on: DU-145 prostate
[10] = tested on: HCC-2998 colon
[11] = tested on: HCT-116 colon
[12] = tested on: HCT-15 colon
[13] = tested on: HL-60(TB) leukemia
[14] = tested on: HOP-62 NSCLC
[15] = tested on: HOP-92 NSCLC
[16] = tested on: HS 578T breast
[17] = tested on: HT29 colon
[18] = tested on: IGROV1 ovarian
[19] = tested on: K-562 leukemia
[20] = tested on: KM12 colon
[21] = tested on: LOX IMVI melanoma
[22] = tested on: M14 melanoma
[23] = tested on: MALME-3M melanoma
[24] = tested on: MCF7 breast
[25] = tested on: MDA-MB-231 breast
[26] = tested on: MDA-MB-435
[27] = tested on: MOLT-4 leukemia
[28] = tested on: NCI-H226 lung
[29] = tested on: NCI-H23 lung
[30] = tested on: NCI-H322M lung
[31] = tested on: NCI-H460 lung
[32] = tested on: NCI-H522 lung
[33] = tested on: NCI/ADR-RES ovarian
[34] = tested on: OVCAR-3 ovarian
[35] = tested on: OVCAR-4 ovarian
[36] = tested on: OVCAR-5 ovarian
[37] = tested on: OVCAR-8 ovarian
[38] = tested on: PC-3 prostate
[39] = tested on: RPMI-8226 leukemia
[40] = tested on: RXF 393 renal
[41] = tested on: SF-268 CNS
[42] = tested on: SF-295 CNS
[43] = tested on: SF-539 CNS
[44] = tested on: SK-MEL-2 melanoma
[45] = tested on: SK-MEL-28 melanoma
[46] = tested on: SK-MEL-5 melanoma
[47] = tested on: SK-OV-3 ovarian
[48] = tested on: SN12C renal
[49] = tested on: SNB-19 CNS
[50] = tested on: SNB-75 CNS
[51] = tested on: SR leukemia
[52] = tested on: SW-620 colon
[53] = tested on: T-47D breast
[54] = tested on: TK-10 renal
[55] = tested on: U251 CNS
[56] = tested on: UACC-62 melanoma
[57] = tested on: UO-31 renal

CCOc1ccc(N(CCCl)CCCl)cc1
GI50 [1]: 3.2 µM
TGI [1]: 10.8 µM
GI50 [2]: 13.9 µM
TGI [2]: 32.9 µM
GI50 [3]: 5.58 µM
TGI [3]: > 100 µM
GI50 [4]: 1.28 µM
TGI [4]: 7.07 µM
GI50 [5]: 10.9 µM
TGI [5]: 38.1 µM
GI50 [6]: 2.04 µM
TGI [6]: 20.8 µM
GI50 [7]: 2.15 µM
TGI [7]: 78.5 µM
GI50 [8]: 12.6 µM
TGI [8]: 35.1 µM
GI50 [9]: 5.85 µM
TGI [9]: > 100 µM
GI50 [10]: 20.4 µM
TGI [10]: 84.4 µM
GI50 [11]: 8.44 µM
TGI [11]: 24.9 µM
GI50 [12]: 13.7 µM
TGI [12]: 91.3 µM
GI50 [13]: 3.01 µM
TGI [13]: 29.2 µM
GI50 [14]: 12.4 µM
TGI [14]: 80.6 µM
GI50 [15]: 5.53 µM
TGI [15]: 38.3 µM
GI50 [16]: 17.8 µM
TGI [16]: 61.7 µM
GI50 [17]: 16.3 µM
TGI [17]: > 100 µM
GI50 [18]: 14.4 µM
TGI [18]: > 100 µM
GI50 [19]: 10.3 µM
TGI [19]: > 100 µM
GI50 [20]: 23.7 µM
TGI [20]: 96.3 µM
GI50 [21]: 4.78 µM
TGI [21]: 31.2 µM
GI50 [22]: 5.28 µM
TGI [22]: 42.7 µM
GI50 [23]: 15.4 µM
TGI [23]: 38.3 µM
GI50 [24]: 1.72 µM
TGI [24]: > 100 µM
GI50 [25]: 25.2 µM
TGI [25]: 83.3 µM
GI50 [26]: 13.3 µM
TGI [26]: 35 µM
GI50 [27]: 3.08 µM
TGI [27]: 52.1 µM
GI50 [28]: 6.76 µM
TGI [28]: > 100 µM
GI50 [29]: 6.19 µM
TGI [29]: 86.4 µM
GI50 [30]: 56.5 µM
TGI [30]: > 100 µM
GI50 [31]: 2.06 µM
TGI [31]: 33.9 µM
GI50 [32]: 6.37 µM
TGI [32]: 28.6 µM
GI50 [33]: 9.39 µM
TGI [33]: > 100 µM
GI50 [34]: 17.8 µM
TGI [34]: 50.8 µM
GI50 [35]: 19.1 µM
TGI [35]: 66.2 µM
GI50 [36]: 20.9 µM
TGI [36]: 66.6 µM
GI50 [37]: 7.33 µM
TGI [37]: 98.1 µM
GI50 [38]: 15.6 µM
TGI [38]: > 100 µM
GI50 [39]: 15.5 µM
TGI [39]: 57.5 µM
GI50 [40]: 3.42 µM
TGI [40]: 15.8 µM
GI50 [41]: 4.58 µM
TGI [41]: 80 µM
GI50 [42]: 3.71 µM
TGI [42]: 34.4 µM
GI50 [43]: 2.15 µM
TGI [43]: 7.61 µM
GI50 [44]: 20.5 µM
TGI [44]: 39.9 µM
GI50 [45]: 15.4 µM
TGI [45]: 51.2 µM
GI50 [46]: 6.49 µM
TGI [46]: 21.4 µM
GI50 [47]: 10.4 µM
TGI [47]: > 100 µM
GI50 [48]: 2.97 µM
TGI [48]: > 100 µM
GI50 [49]: 7.72 µM
TGI [49]: > 100 µM
GI50 [50]: 6 µM
TGI [50]: 49.9 µM
GI50 [51]: 1.31 µM
TGI [51]: 65.1 µM
GI50 [52]: 11.4 µM
TGI [52]: > 100 µM
GI50 [53]: 8.23 µM
TGI [53]: > 100 µM
GI50 [54]: 22.2 µM
TGI [54]: 66 µM
GI50 [55]: 3.85 µM
TGI [55]: 29 µM
GI50 [56]: 4.77 µM
TGI [56]: 21.4 µM
GI50 [57]: 5.41 µM
TGI [57]: 47.3 µM
